Results: ChEMBL document CHEMBL5236581, “A Versatile and Sustainable Multicomponent Platform for the Synthesis of Protein Degraders: Proof-of-Concept Application to BRD4-Degrading PROTACs” (J Med Chem, 2022)

Chains of the proteins cited; added tags and fusions are not shown.
UniProt P40337, whole entry, looked up: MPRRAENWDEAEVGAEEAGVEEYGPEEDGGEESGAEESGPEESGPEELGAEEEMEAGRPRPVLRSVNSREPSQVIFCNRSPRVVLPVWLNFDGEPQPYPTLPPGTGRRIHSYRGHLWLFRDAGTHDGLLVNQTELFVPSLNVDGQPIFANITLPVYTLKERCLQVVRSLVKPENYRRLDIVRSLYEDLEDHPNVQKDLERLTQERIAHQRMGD

Target: von Hippel-Lindau disease tumor suppressor/Bromodomain-containing protein 4 (Homo sapiens) (UniProt O60885+P40337)
Experiment: Protac activity at BRD4/VHL E3 ligase in human MDA-MB-231 cells assessed as decrease in BRD4 expression at 1 uM incubated for 4 to 24 hrs by Western blot analysis
Type: cell-based
Details: time lower 4.0 hrs, time upper […]

Activity: Active
Structure (SMILES): Cc1ncsc1-c1ccc(CNC(=O)[C@@H]2C[C@@H](O)CN2C(=O)[C@@H](NC(=O)COCCOCCOCCNC(=O)C[C@@H]2N=C(c3ccc(Cl)cc3)c3c(sc(C)c3C)-n3c(C)nnc32)C(C)(C)C)cc1

Activity calls are given as the source filed them. No cut-off for these calls is given here.
